Experimental data: US20260209387A1, “SINGLE-DOMAIN ANTIBODY FOR INHIBITION OF NEUTROPHIL ELASTASE ACTIVITY” (UNIVERSITE DE LIEGE, priority 2023, published 2026)

Assays:
hNE [1] = target: T1, hNE (Homo sapiens, UniProt P08246); assay: hNE inhibition, hydrolysis of elastin (Elastin-CongoRed); type: biochemical; conditions: hNE 132 nM, 16 hours at 37° C.
T1 construct: purchased Elastin Products Company (EPC)
T1 sequence (P08246 30-247): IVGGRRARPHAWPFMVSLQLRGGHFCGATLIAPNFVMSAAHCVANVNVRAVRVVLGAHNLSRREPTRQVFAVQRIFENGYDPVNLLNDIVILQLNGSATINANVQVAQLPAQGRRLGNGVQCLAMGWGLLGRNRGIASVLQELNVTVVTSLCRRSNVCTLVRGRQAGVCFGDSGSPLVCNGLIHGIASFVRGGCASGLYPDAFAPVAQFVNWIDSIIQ
Description: 1.6.2. Inhibition of the hydrolysis of elastin, a natural substrate of hNE. […] The samples were incubated for 16 hours at 37° C. with orbital shaking (900 rpm). The samples were then centrifuged at 90′000 g for 30 minutes at 4° C. to separate the insoluble Elastin from the digested and soluble molecule fragments. The soluble fraction was transferred into a 384-wells clear plate and the absorbance of Congo-red was measured at 495 nm in a SpectraMax M2e Microplates Reader (Molecular Devices, California, USA). The absorbance of the samples at different inhibitor: hNE molar ratios was compared to that measured in the absence of inhibitor, to determine the residual hNE activity. A sample of Elastin-Congo red without elastase was used as blank.

hNE [2] = target: T1, hNE; assay: hNE inhibition, hydrolysis of chromogenic substrate N-Succinyl-Ala-Ala-Ala-paraNitroAnilide; type: biochemical; conditions: hNE 50 nM; substrate 1 mM

CC(C)(C)C(=O)Oc1ccc(S(=O)(=O)Nc2ccccc2C(=O)NCC(=O)O)cc1 [Sivelestat]
IC50 (hNE [1]): 7.76 ± 0.255 µM
IC50 (hNE [2]): 0.077 ± 0.001 µM
